The record followed here is BindingDB's records for 19853328 (Sri Venkateswara University, 2010).

By UniProt entry, the sequences of proteins in these tests, tags left out. Residues count along the entry.
UniProt P04762, 2-527 limits assumed: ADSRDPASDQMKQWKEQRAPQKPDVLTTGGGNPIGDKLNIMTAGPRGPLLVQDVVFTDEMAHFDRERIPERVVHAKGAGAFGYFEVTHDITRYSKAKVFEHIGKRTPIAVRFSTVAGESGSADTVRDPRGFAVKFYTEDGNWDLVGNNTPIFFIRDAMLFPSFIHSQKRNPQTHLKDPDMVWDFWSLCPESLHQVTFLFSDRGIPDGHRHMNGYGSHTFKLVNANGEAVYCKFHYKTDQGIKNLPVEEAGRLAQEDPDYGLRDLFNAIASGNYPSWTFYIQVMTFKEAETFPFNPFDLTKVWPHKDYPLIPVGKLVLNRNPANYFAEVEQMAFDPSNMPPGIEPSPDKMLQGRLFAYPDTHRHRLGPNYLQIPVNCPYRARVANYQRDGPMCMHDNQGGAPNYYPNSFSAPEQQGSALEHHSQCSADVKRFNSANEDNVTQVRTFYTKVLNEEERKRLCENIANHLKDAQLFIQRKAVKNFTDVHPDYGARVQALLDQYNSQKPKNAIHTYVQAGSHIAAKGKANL

Usually EC50 stands for the concentration at which the effect is half-maximal.

The test addresses Catalase (Rattus norvegicus, UniProt P04762). The test can be described thus: Inhibition of catalase in Wistar rat brain.

Consider `COc1ccc2c3c1O[C@H]1C[C@@H](OP(=O)(SCCN)N(CCCl)CCCl)C=C[C@@]31CCN(C)C2` (some centres not stated), for which the EC50 amounted to 4.83 µM.
Turning to `COc1ccc2c3c1O[C@H]1C[C@@H](OP(=O)(Oc4ccc([N+](=O)[O-])cc4)SCCN)C=C[C@@]31CCN(C)C2` (some centres not stated), the half-maximal effective concentration (EC50) stood at 3.7 µM.
